Measurements reported in patent US20190048074A1 (Regeneron, published 2019).
Numbering of substitutions follows the chain as printed. In names and notes the source's numbering stands.

T1: full length cynomolgus APLNR (cynomolgus monkey (Macaca fascicularis), UniProt O97666 1-380 (rhesus entry))
T1 construct: Stably expressed on HEK293/CRE-luc/MfAPLNR cells; also called MfAPLNR; mfAPLNR
T1 sequence: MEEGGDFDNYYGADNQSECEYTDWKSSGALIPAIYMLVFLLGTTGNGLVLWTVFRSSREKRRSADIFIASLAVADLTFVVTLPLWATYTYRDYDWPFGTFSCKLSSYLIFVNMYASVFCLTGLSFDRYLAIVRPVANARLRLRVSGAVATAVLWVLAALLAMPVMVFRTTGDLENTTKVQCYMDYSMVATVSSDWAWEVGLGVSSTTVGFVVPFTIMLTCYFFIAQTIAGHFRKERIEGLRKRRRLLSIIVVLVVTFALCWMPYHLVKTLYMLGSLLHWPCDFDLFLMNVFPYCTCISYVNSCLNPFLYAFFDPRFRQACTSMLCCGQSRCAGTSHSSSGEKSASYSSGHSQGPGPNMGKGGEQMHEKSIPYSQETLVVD

T2: full-length human APLNR (human, UniProt P35414 1-380)
T2 construct: Stably expressed on HEK293/CRE-luc/hAPLNR cells (FACS, CRE-luc assays) and on CHO/hAPLNR cells (pERK assays); also called hAPLNR; apelin receptor
T2 sequence: T1 sequence with S101F, F167L, D194E, V290I

T3: human Apelin receptor (hAPLNR) in PathHunter eXpress AGTRL1 CHO-K1 β-Arrestin cells (human, UniProt P35414 1-380)
T3 sequence: T1 sequence with S101F, F167L, D194E, V290I

B1: H4H9093P-3-NVH3 (antibody, V domains shown)
VH: EVQLVESGGGLVKPGGSLRLSCAASGITFSNAWMSWVRQAPGKGLEWVGRFKGKADGGTVDYAAPVKGRFTISRDDSKNTLYLQMNSLKNEDTAVYYCTTGRITMVRGVLGYWGQGTLVTVSS
VL: not shown
notes: Antibody-apelin fusion protein; human IgG4 Fc; also called H4H9093P Nter VH fusion with (G4S)3 linker
B2: H4H9092P (antibody, V domains shown)
VH: B1 VH with F51I, G53S, A55V, V60I, N90T
VL: not shown
notes: Fully human, human IgG4 Fc (H4H prefix)
B3: H4H9093P-4-NVH0 (antibody, V domains shown)
VH: B1 VH
VL: not shown
notes: Antibody-apelin fusion protein; human IgG4 Fc; also called H4H9093P Nter VH fusion with no linker
B4: H4H9093P-2-CVK3 (antibody)
VH: B1 VH
light: not shown
notes: Antibody-apelin fusion protein; human IgG4 Fc; also called H4H9093P Cter Vk fusion with (G4S)3 linker
B5: H4H9093P-1-NVK3 (antibody, V domains shown)
VH: B1 VH
VL: not shown
notes: Antibody-apelin fusion protein; human IgG4 Fc; also called H4H9093P Nter Vk fusion with (G4S)3 linker
B6: H4H9093P-5-NVH1 (antibody, V domains shown)
VH: B1 VH
VL: not shown
notes: Antibody-apelin fusion protein; human IgG4 Fc; also called H4H9093P Nter VH fusion with G4S linker
B7: H4H9093P-6-NVH2 (antibody, V domains shown)
VH: B1 VH
VL: not shown
notes: Antibody-apelin fusion protein; human IgG4 Fc; also called H4H9093P Nter VH fusion with (G4S)2 linker
B8: H4H9093P (antibody, V domains shown)
VH: B1 VH
VL: not shown
notes: Fully human, human IgG4 Fc
B9: H4H9092P-1-NVH3 (antibody, V domains shown)
VH: B1 VH with F51I, G53S, A55V, V60I, N90T
VL: not shown
notes: Antibody-apelin fusion protein; human IgG4 Fc; also called H4H9092P Nter VH fusion with (G4S)3 linker
B10: H4H9092P-2-NVK3 (antibody, V domains shown)
VH: B1 VH with F51I, G53S, A55V, V60I, N90T
VL: not shown
notes: Antibody-apelin fusion protein; human IgG4 Fc; also called H4H9092P Nter Vk fusion with (G4S)3 linker
B11: H4H9092P-3-CVK3 (antibody)
VH: B1 VH with F51I, G53S, A55V, V60I, N90T
light: not shown
notes: Antibody-apelin fusion protein; human IgG4 Fc; also called H4H9092P Cter Vk fusion with (G4S)3 linker
B12: H4H9209N-1-NVH0 (antibody, V domains shown)
VH: EVQLLESGGGLVQPGGSLRLSCAASGFTFSNYAMNWVRQAPGRGLEWVSAIHYDGSNSYYADSVKGRFTISRDNSKNTLYLQMNSLRAEDTAIYYCAILSRVYWGQGTLVTVSS
VL: DIQMTQSPSSLSASVGDRVTITCRASQGINNYLAWFQQKPGKAPKSLIYATSSLQSGVPSKFSGSGSGTDFTLTISSLQPEDFATYYCQQYNSYPLTFGGGTKVEIK
B13: H4H9209N-4-NVH3 (antibody, V domains shown)
VH: B12 VH
VL: B12 VL
B14: H4H9209N-3-NVH2 (antibody, V domains shown)
VH: B12 VH
VL: B12 VL
B15: H4H9209N-2-NVH1 (antibody, human IgG4, V domains shown)
VH: B12 VH
VL: B12 VL

target: T1, full length cynomolgus APLNR; assay: FACS, HEK293/CRE-luc/MfAPLNR cells

Binder | Binding Ratio of Geom. Mean to Unstained Cells
B1 | 49 fold
B2 | 20 fold
B3 | 52 fold
B4 | 28 fold
B5 | 16 fold
B6 | 54 fold
B7 | 47 fold
B8 | 31 fold
B9 | 31 fold
B10 | 6 fold
B11 | 15 fold

target: T2, full-length human APLNR; assay: FACS, HEK293/CRE-luc/hAPLNR cells

Binder | Binding Ratio of Geom. Mean to Unstained Cells
B1 | 130 fold
B2 | 37 fold
B3 | 140 fold
B4 | 60 fold
B5 | 31 fold
B6 | 151 fold
B7 | 139 fold
B8 | 61 fold
B9 | 79 fold
B10 | 16 fold
B11 | 31 fold

target: T2, full-length human APLNR; assay: cell-based or functional assay

Binder | % Inhibition at 100 nM mAb, in the presence of 100 ρM Apelin (at 10 µM Forskolin)
B3 | 29%
B8 | 16%
B12 | 13%

target: T3, human Apelin receptor (hAPLNR) in …; assay: cell-based or functional assay

Binder | % Activation at 500 nM antibody or Apelin-antibody fusion | EC50 [M], PathHunter β-Arrestin assay
B1 | 54% | 2.1e-09 M

target: T2, full-length human APLNR; assay: cell-based or functional assay; remark: another data set of the same source

Binder | % Activation at 100 nM mAb (7.5 µM Forskolin) | EC50 [M] (7.5 µM Forskolin)
B1 | 100% | 8.7e-11 M
B13 | 100% | 2.4e-11 M

target: T2, full-length human APLNR; assay: cell-based or functional assay; remark: another data set of the same source

Binder | % Activation at 100 nM mAb (10 µM Forskolin) | EC50 [M] (10 µM Forskolin)
B1 | 100% | 5.9e-11 M
B4 | 100% | 9.2e-11 M
B5 | 100% | 7.7e-09 M
B6 | 100% | 4.6e-10 M
B7 | 100% | 8.7e-11 M
B9 |  | 7.3e-11 M
B10 | 100% | 2.9e-08 M
B11 | 100% | 7.5e-10 M
B13 | 100% | 2.8e-11 M
B14 | 100% | 6.5e-11 M
B15 | 100% | 2.9e-09 M

target: T1, full length cynomolgus APLNR; assay: FACS, 10 µg/mL antibody, HEK293/CRE-luc/MfAPLNR cells

Binder | Binding Ratio of Geom. Mean to Unstained Cells
B2 | 20 fold
B8 | 31 fold

target: T2, full-length human APLNR; assay: FACS, 10 µg/mL antibody, HEK293/CRE-luc/hAPLNR cells

Binder | Binding Ratio of Geom. Mean to Unstained Cells
B2 | 37 fold
B8 | 61 fold

target: T2, full-length human APLNR; assay: cell-based or functional assay; remark: another data set of the same source

Binder | Activating EC50 (M), pERK/total ERK assay
B1 | 5.42e-10 M
B13 | 2.71e-10 M
